{
  "source": "FireProtDB (doi:10.1110/ps.840101)",
  "parents": {"B1": {"name": "Alpha-1-antitrypsin, P01009 (parent)", "chain": "MPSSVSWGILLLAGLCCLVPVSLAEDPQGDAAQKTDTSHHDQDHPTFNKITPNLAEFAFSLYRQLAHQSNSTNIFFSPVSIATAFAMLSLGTKADTHDEILEGLNFNLTEIPEAQIHEGFQELLRTLNQPDSQLQLTTGNGLFLSEGLKLVDKFLEDVKKLYHSEAFTVNFGDTEEAKKQINDYVEKGTQGKIVDLVKELDRDTVFALVNYIFFKGKWERPFEVKDTEEEDFHVDQVTTVKVPMMKRLGMFNIQHCKKLSSWVLLMKYLGNATAIFFLPDEGKLQHLENELTHDIITKFLENEDRRSASLHLPKLSITGTYDLKSVLGQLGITKVFSNGADLSGVTEEAPLKLSKAVHKAVLTIDEKGTEAAGAMFLEAIPMSIPPEVKFNKPFVFLMIEQNTKSPLFMGKVVNPTQK"}},
  "data": [
    {"variants_of": "B1", "details": "Homo sapiens; pH 6.5; 25 °C; GdnHCl; Fluorescence; phosphate 10 mM; NaCl 50 mM; reversible: Unknown; structure 1QLP; whole UniProt chain shown", "units": {"ddG of mutation (higher = less stable)": "kJ/mol"}, "values": [
      {"variant": "MPSSVSWGILLLAGLCCLVPVSLAEDPQGDAAQKTDTSHHDQDHPTFNKITPNLAEFAFSLYRQLAHQSNSTNIFFSPVSIATAFAMLSLGTKADTHDEILEGLNFNLTEIPEAQIHEGFQELLRTLNQPDSQLQLTTGNGLFLSEGLKLVDKFLEDVKKLYHSEAFTVNFGDTEEAKKQINDYVEKGTQGKIVDLVKELDRDTVFALVNYIFFKGKWERPFEVKDTEEEDFHVDQVTTVKVPMMKRLGMFNIQHCKKLSSWVLLMKYLGNATAIFFLPDEGKLQHLENELTHDIITKFLENEDRRSASLHLPKLSITGTYDLKSVLGQLGITKVFSNGADLSGITEEAPLKLSKAVHKAVLTIDEKGTEAAGAMFLEAIPMSIPPEVKFNKPFVFLMIEQNTKSPLFMGKVVNPTQK", "note": "[V345I]", "ddG of mutation (higher = less stable)": -2.51},
      {"variant": "MPSSVSWGILLLAGLCCLVPVSLAEDPQGDAAQKTDTSHHDQDHPTFNKITPNLAEFAFSLYRQLAHQSNSTNIFFSPVSIATAFAMLSLGTKADTHDEILEGLNFNLTEIPEAQIHEGFQELLRTLNQPDSQLQLTTGNGLFLSEGLKLVDKFLEDVKKLYHSEAFTVNFGDTEEAKKQINDYVEKGTQGKIVDLVKELDRDTVFALVNYIFFKGKWERPFEVKDTEEEDFHVDQVTTVKVPMMKRLGMFNIQHCKKLSSWVLLMKYLGNATAIFFLPDEGKLQHLENELTHDIITKFLENEDRRSASLHLPKLSITGTYDLKSVLGQLGITKVFSNGADLSGLTEEAPLKLSKAVHKAVLTIDEKGTEAAGAMFLEAIPMSIPPEVKFNKPFVFLMIEQNTKSPLFMGKVVNPTQK", "note": "[V345L]", "ddG of mutation (higher = less stable)": 5.02},
      {"variant": "MPSSVSWGILLLAGLCCLVPVSLAEDPQGDAAQKTDTSHHDQDHPTFNKITPNLAEFAFSLYRQLAHQSNSTNIFFSPVSIATAFAMLSLGTKADTHDEILEGLNFNLTEIPEAQIHEGFQELLRTLNQPDSQLQLTTGNGLFLSEGLKLVDKFLEDVKKLYHSEAFTVNFGDTEEAKKQINDYVEKGTQGKIVDLVKELDRDTVFALVNYIFFKGKWERPFEVKDTEEEDFHVDQVTTVKVPMMKRLGMFNIQHCKKLSSWVLLMKYLGNATAIFFLPDEGKLQHLENELTHDIITKFLENEDRRSASLHLPKLSITGTYDLKSVLGQLGITKVFSNGADLSGVTEEAPLKLSKAVHKAVLTIDEKGTEAAGAMFLEAIPMSIPPEIKFNKPFVFLMIEQNTKSPLFMGKVVNPTQK", "note": "[V388I]", "ddG of mutation (higher = less stable)": -1.67},
      {"variant": "MPSSVSWGILLLAGLCCLVPVSLAEDPQGDAAQKTDTSHHDQDHPTFNKITPNLAEFAFSLYRQLAHQSNSTNIFFSPVSIATAFAMLSLGTKADTHDEILEGLNFNLTEIPEAQIHEGFQELLRTLNQPDSQLQLTTGNGLFLSEGLKLVDKFLEDVKKLYHSEAFTVNFGDTEEAKKQINDYVEKGTQGKIVDLVKELDRDTVFALVNYIFFKGKWERPFEVKDTEEEDFHVDQVTTVKVPMMKRLGMFNIQHCKKLSSWVLLMKYLGNATAIFFLPDEGKLQHLENELTHDIITKFLENEDRRSASLHLPKLSITGTYDLKSVLGQLGITKVFSNGADLSGVTEEAPLKLSKAVHKAVLTIDEKGTEAAGAMFLEAIPMSIPPELKFNKPFVFLMIEQNTKSPLFMGKVVNPTQK", "note": "[V388L]", "ddG of mutation (higher = less stable)": 1.26},
      {"variant": "MPSSVSWGILLLAGLCCLVPVSLAEDPQGDAAQKTDTSHHDQDHPTFNKITPNLAEFAFSLYRQLAHQSNSTNIFFSPVSIATAFAMLSLGTKADTHDEILEGLNFNLTEIPEAQIHEGFQELLRTLNQPDSQLQLTTGNGLFLSEGLKLVDKFLEDVKKLYHSEAFTVNFGDTEEAKKQINDYVEKGTQGKIVDLVKELDRDTVFALVNYIFFKGKWERPFEVKDTEEEDFHVDQVTTVKVPMMKRLGMFNIQHCKKLSSWVLLMKYLGNATVIFFLPDEGKLQHLENELTHDIITKFLENEDRRSASLHLPKLSITGTYDLKSVLGQLGITKVFSNGADLSGVTEEAPLKLSKAVHKAVLTIDEKGTEAAGAMFLEAIPMSIPPEVKFNKPFVFLMIEQNTKSPLFMGKVVNPTQK", "note": "[A274V]", "ddG of mutation (higher = less stable)": 1.67},
      {"variant": "MPSSVSWGILLLAGLCCLVPVSLAEDPQGDAAQKTDTSHHDQDHPTFNKITPNLAEFAFSLYRQLAHQSNSTNIFFSPVSIATAFAMLSLGTKADTHDEILEGLNFNLTEIPEAQIHEGFQELLRTLNQPDSQLQLTTGNGLFLSEGLKLVDKFLEDVKKLYHSEAFTVNFGDTEEAKKQINDYVEKGTQGKIVDLVKELDRDTVFALVNYIFFKGKWERPFEVKDTEEEDFHVDQVTTVKVPMMKRLGMFNIQHCKKLSSWVLLMKYLGNATLIFFLPDEGKLQHLENELTHDIITKFLENEDRRSASLHLPKLSITGTYDLKSVLGQLGITKVFSNGADLSGVTEEAPLKLSKAVHKAVLTIDEKGTEAAGAMFLEAIPMSIPPEVKFNKPFVFLMIEQNTKSPLFMGKVVNPTQK", "note": "[A274L]", "ddG of mutation (higher = less stable)": 4.18},
      {"variant": "MPSSVSWGILLLAGLCCLVPVSLAEDPQGDAAQKTDTSHHDQDHPTFNKITPNLAEFAFSLYRQLAHQSNSTNIFFSPVSIATAFAMLSLGTKADTHDEILEGLNFNLTEIPEAQIHEGFQELLRTLNQPDSQLQLTTGNGLFLSEGLKLVDKFLEDVKKLYHSEAFTVNFGDTEEAKKQINDYVEKGTQGKIVDLVKELDRDTVFALVNYIFFKGKWERPFEVKDTEEEDFHVDQVTTVKVPMMKRLGMFNIQHCKKLSSWVLLMKYLGNATIIFFLPDEGKLQHLENELTHDIITKFLENEDRRSASLHLPKLSITGTYDLKSVLGQLGITKVFSNGADLSGVTEEAPLKLSKAVHKAVLTIDEKGTEAAGAMFLEAIPMSIPPEVKFNKPFVFLMIEQNTKSPLFMGKVVNPTQK", "note": "[A274I]", "ddG of mutation (higher = less stable)": 1.67},
      {"variant": "MPSSVSWGILLLAGLCCLVPVSLAEDPQGDAAQKTDTSHHDQDHPTFNKITPNLAEFAFSLYRQLAHQSNSTNIFFSPVSIATAFAMLSLGTKADTHDEILEGLNFNLTEIPEAQIHEGFQELLRTLNQPDSQLQLTTGNGLFLSEGLKLVDKFLEDVKKLYHSEAFTVNFGDTEEAKKQINDYVEKGTQGKIVDLVKELDRDTVFALVNYIFFKGKWERPFEVKDTEEEDFHVDQVTTVKVPMMKRLGMFNIQHCKKLSSWVLLMKYLGNATAIFFLPDEGKLQHLENELTHDIITKFLENEDRRSISLHLPKLSITGTYDLKSVLGQLGITKVFSNGADLSGVTEEAPLKLSKAVHKAVLTIDEKGTEAAGAMFLEAIPMSIPPEVKFNKPFVFLMIEQNTKSPLFMGKVVNPTQK", "note": "[A308I]", "ddG of mutation (higher = less stable)": 0},
      {"variant": "MPSSVSWGILLLAGLCCLVPVSLAEDPQGDAAQKTDTSHHDQDHPTFNKITPNLAEFAFSLYRQLAHQSNSTNIFFSPVSIATAFAMLSLGTKADTHDEILEGLNFNLTEIPEAQIHEGFQELLRTLNQPDSQLQLTTGNGLFLSEGLKLVDKFLEDVKKLYHSEAFTVNFGDTEEAKKQINDYVEKGTQGKIVDLVKELDRDTVFALVNYIFFKGKWERPFEVKDTEEEDFHVDQVTTVKVPMMKRLGMFNIQHCKKLSSWVLLMKYLGNATAIFFLPDEGKLQHLENELTHDIITKFLENEDRRSVSLHLPKLSITGTYDLKSVLGQLGITKVFSNGADLSGVTEEAPLKLSKAVHKAVLTIDEKGTEAAGAMFLEAIPMSIPPEVKFNKPFVFLMIEQNTKSPLFMGKVVNPTQK", "note": "[A308V]", "ddG of mutation (higher = less stable)": -3.35}
    ]}
  ]
}
